Experimental data published in patent publication US20230165812A1, “NOCICEPTOR NEURONS CONTROL CANCER IMMUNOSURVEILLANCE” (priority 2020, published 2023).

Tested on: cytotoxic CD8 T cells
Type: cell-based, mice
Experimental: 6-8 weeks-old male and female mice were euthanized, spleen harvested in ice-cold PBS (5% FBS), and mechanically dissociated. The cells were strained (70 μm), RBC lysed (Life Technologies, #A1049201; 2 min), and counted using a hemocytometer. Naïve CD8^+ T cells were magnet sorted (Stem cell, #19853A) and cultured (DMEM+FBS 10%, Pen/Strep +non-essential amino acid (Corning, #25-025-C1)+vitamin+β-mercaptoethanol (Gibco, #21985-023)+L-Glutamine (VWR, #02-0131)+sodium pyruvate (Corning, #25-000-C1)). Cell purity was confirmed after magnet sorting by labeling cells against CD62L and the numbers of CD8^+CD62^hi immunophenotyped by flow cytometry. To generate cytotoxic T lymphocytes, 1×10^6 naïve CD8^+ T cells were seeded and stimulated for 48 h under Tc1 inflammatory condition (2 μg/ml plate bounded αCD3/αCD28 (Bioxcell, #BE00011, #BE00151)+10 ng/ml rIL-12 (Biolegend, #577008)+10 μg/ml of anti-IL-4 (Bioxcell, #BE0045).
CD8 T cells were isolated and stimulated for 48 h in 96 wells plate. In the presence of peptidase inhibitor, the cells were treated with either of CGRP (0.1 uM), VIP (1 uM) and SST (0.1 uM), or a combination of these. Expression of PD-1, Lag-3 and Tim-3 as well as INFγ, TNFα and IL-2 were immunophenotyped by flow cytometry.

For CGRP, the “cytotoxic CD8+ T-cells expression of Lag3+” value (CGRP) was “increases”, the “cytotoxic CD8+ T-cells expression of PD1+” value (CGRP) was “increases” and the “cytotoxic CD8+ T-cells expression of Tim3+” value (CGRP) was “increases”. For the same substance, the “proportion of PD1+Lag3+ cytotoxic CD8 T cells” value (CGRP 0.1 uM, VIP 1 uM, FIG. 38G) was “increased”, the “proportion of TNFα+ cytotoxic CD8+ T-cells” value (CGRP, direct stimulation) was “decreased” and the “proportion of PD1+Lag3+Tim3+ CD8 T cells” value (individual neuropeptides, peptidase inhibitor present, FIG. 38G) was “enhanced”. The “proportion of INFγ+ CD8 T cells” value (individual neuropeptides, FIG. 38H) was “enhanced”, the “proportion of PD1+ CD8 T cells” value (neuropeptides, FIG. 44H) was “enhanced” and the “proportion of Lag3+ CD8 T cells” value (neuropeptides, FIG. 44I) was “enhanced”. For the same substance, the “proportion of Tim3+ CD8 T cells” value (neuropeptides, FIG. 44J) was “enhanced” and the “IL2+ CD8 T cells” value (neuropeptides, FIG. 44K) was “enhanced”.
